FBPA coupling cs: coupling enzyme interference in Giardia aldolase counter-screen | coupling enzyme system counterscreen, AmpLite Red fluorescence | activity change, negative = inhibition, % at 58.2 µM, hits read low | 0.67% of 290,000 active; in the data active = activity change below about -30%; note: % is set by controls: 0 for no effect and ±100 for the full control effect
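Fluorescence at 525 nm excitation and 598 nm emission measured inhibition of the coupled detection system without aldolase. Compounds (at 57.5 uM final) were preincubated 10 min at room temperature with coupling enzyme reagent before a 20 min substrate/AmpLite Red step.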
miR-21 FLuc: miR-21 reporter, rising signal; HeLa miR-21 FLuc reporter, luciferase, 48 h; Potency, µM (titrated, usually from 38.3 µM), without a hit: top-dose reporter change, positive = more light; AID 2288; 340,000 tested, under 10 active; active = well fitted rising curve with a large enough effect; inconclusive = small, poorly fitted or top-dose-only effect; inactive = no such curve, though single readings can be large or run the other way;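 further: % of control where 0% means no effect; miR-21 action dims this reporter so a rising signal means less miR-21 action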
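HeLa cells stably expressing CMV-driven firefly luciferase with a downstream miR-21 binding sequence, endogenously expressing miR-21, were treated with titrations (up to about 40uM final) for 48 hours at 37 degree Celsius. Luciferase luminescence was read after lysis.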
B2AR arrestin: beta2AR (human) beta-arrestin recruitment activity; AID 492947; 0.02% of 330,000 active; P07550; Potency, µM (highest dose often 46.1 µM), for inactives: at the highest dose activation, most hits filed as activators; beta-arrestin recruitment to beta2AR, cell-based reporter;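 note: potency is the fitted concentration of half-maximal effect; 0% = DMSO controls and full agonism = EC100 isoproterenol or metaproterenol; nearly all actives have a fitted effect of over 65% in size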
Giardia kill: Giardia lamblia killing; Giardia lamblia trophozoite viability; 0.15% of 340,000 active; activity change, % at 7.66 µM, hits read low; in the data active = activity change below about -80%; inconclusive = between about -30% and that limit;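 note: parasites exposed to compound for two days anaerobically before the ATP read; % is set by controls: 0 for no effect and ±100 for the full control effect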
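Killing of trophozoites was scored by loss of ATP luminescence after a 48 hrs anaerobic exposure to compounds at 37 deg C, using 100 cells per well.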
uPA generation: blocks generation of uPA at the cell surface; cell surface uPA generation assay, qHTS; Potency, µM (series often up to 38.3 µM), without a hit: top-dose activity change, negative = inhibition, actives largely listed as inhibitors; 0.31% of 330,000 active; active = well fitted inhibition curve with a large enough effect; inconclusive = small, poorly fitted or top-dose-only effect; inactive = no such curve, though single readings can be large or run the other way; tested in mouse RAW 264.7 cells; note: potency is the fitted concentration of half-maximal effect; % is set by controls: 0 for no effect and ±100 for the full control effect; nearly all actives have a fitted effect of over 55% in size
GALK inh: inhibitors of human galactokinase; P51570; Purified GALK, Kinase-Glo residual ATP luminescence; Potency, µM (highest dose often 57.5 µM), without a hit: at the top dose activity change, negative = inhibition, hits mostly inhibitors; 0.007% of 270,000 active; AID 1868; note: potency is the fitted concentration of half-maximal effect; % is set by controls: 0 for no effect and ±100 for the full control effect
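Galactose (100 uM) and ATP (35 uM) were turned over by 5 nM GALK for 1 h at RT. Kinase-Glo Plus then converted the remaining ATP into a luminescent signal.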
The depositor's hits bear a star; ? = inconclusive; nt = no result; ! = not confirmed by another sample. Hits are enriched below; roughly 0.92% of the tested compounds scored in any of these assays. Unless noted, calls come from the whole dose curve; as a rule, active = well fitted curve in the direction sought with a large enough effect; inconclusive = small, poorly fitted or top-dose-only effect, or another doubt; inactive = no such curve, though single readings can be large; an effect the other way counts as inactive or inconclusive.

cpd	Compound	FBPA coupling cs	miR-21 FLuc	B2AR arrestin
1	CCCCCCCCCCCCCCCC[n+]1ccccc1	-0.5	nt	nt
2	CCCCCCC[n+]1ccc(-c2cc[n+](CCCCCCC)cc2)cc1	0.7	27.8%	-0.4%
3	O=C(NC1(Cc2ccccc2)CCN(Cc2ccc(-c3ccccc3)cc2)C1=O)c1ccccc1 (stereo not given)	nt	nt	0.3%
4	Fc1ccc(C2=CCN(C(c3ccc(Cl)cc3)c3nnnn3Cc3ccccc3)CC2)cc1 (stereo not given)	2.6	3.4%	-0.1%
5	Cc1ccc(C(c2nnnn2Cc2ccccc2)N2CC=C(c3ccc(F)cc3)CC2)cc1 (stereo not given)	0.2	-13.8%	2.8%
6	CC(=O)Nc1c2sscc-2n(C)c1=O	-1.4	nt	nt
7	COc1cc2c(c3oc4cccc(O)c4c(=O)c13)C1C=CO[C@@H]1O2 (stereo not given in full)	0.9	nt	nt
8	COc1cc2c(cc1OC)-c1c3c(cc4c1[C@@H](C2)N(C)CC4)OCO3	-29.5	5.7%	2.1%
9	COc1cc2c(cc1O)C[C@H]1NCCc3cc4c(c-2c31)OCO4	-30.9*	19.7%	-1.1%
10	CN1CC[C@]2(C)c3cc(O)ccc3N(C)[C@@H]12	-69.5*	nt	nt

cpd	Giardia kill	uPA generation	GALK inh
1	-13.0	0.708µM*!	nt
2	-7.8	-7.2%	0.4%
3	5.9	?	nt
4	16.1	10.4%	nt
5	-90.2*	10.1%	-1.9%
6	nt	nt	nt
7	nt	nt	nt
8	0.4	?	nt
9	2.8	?	nt
10	nt	nt	nt

Single records, from the list above. Order of values: FBPA coupling cs	miR-21 FLuc	B2AR arrestin	Giardia kill	uPA generation	GALK inh
Results for CN1CC[C@]2(C)c3cc(O)ccc3N(C)[C@@H]12 : -69.5*	nt	nt	nt	nt	nt
Results for Fc1ccc(C2=CCN(C(c3ccc(Cl)cc3)c3nnnn3Cc3ccccc3)CC2)cc1 (stereo not given) : 2.6	3.4%	-0.1%	16.1	10.4%	nt
Results for CCCCCCC[n+]1ccc(-c2cc[n+](CCCCCCC)cc2)cc1 : 0.7	27.8%	-0.4%	-7.8	-7.2%	0.4%

The listing continues:
cpd	Compound	FBPA coupling cs	miR-21 FLuc	B2AR arrestin
11	CC1[C@H]2Cc3ccc(O)cc3[C@]1(C)CCN2CCc1ccccc1 (stereo not given in full)	nt	nt	-0.5%
12	CC(C)C[C@H]1CN=C(Nc2ccccc2)N1CCC(C)c1ccccc1 (stereo not given in full)	nt	nt	3.1%
13	COC(=O)N1C(=O)[C@@](c2ccc(OC)cc2)(C(C)C)N1C(=O)OC	1.5	5.8%	?
14	O=C1N[C@H](Cc2ccccc2)COC(=O)[C@@H](Cc2ccc(F)cc2)C/C=C\C[C@H]1CC(=O)N(CCO)Cc1ccccc1	nt	nt	-0.5%
15	Cc1cc(-c2ccccc2)n(-c2cc(N/N=C/c3ccccc3O)ncn2)n1	-0.3	20.9%	-0.9%
16	CCOC(=O)CCN(SN(C)C(=O)Oc1cccc2c1OC(C)(C)C2)C(C)C	-2.3	nt	nt
17	COc1cc2c(cc1O)[C@H]1Cc3ccc(OC)c(O)c3CN1CC2	-37.6*	nt	nt
18	CCc1cccc(NC(=O)c2ccc(NC(=O)N3CCSc4ncccc43)cc2)c1	nt	-32.1%	nt
19	Cc1ccc(Cn2cccc(C(=O)Nc3nc4ccc(C)cc4s3)c2=O)cc1	nt	-5.9%	nt
20	Cc1cc(C)c2sc(NC(=O)c3ccc([N+](=O)[O-])o3)nc2c1	-8.8	3.4%	-0.6%

cpd	Giardia kill	uPA generation	GALK inh
11	-1.1	-12.0%	nt
12	-22.0	?	nt
13	13.6	6.31µM*	nt
14	-13.0	?	nt
15	-14.1	10µM*	0.0%
16	nt	nt	nt
17	nt	nt	nt
18	nt	nt	nt
19	nt	nt	nt
20	-81.2*	?	nt

(cont.)
cpd	Compound	FBPA coupling cs	miR-21 FLuc	B2AR arrestin
21	CN(C1=C(NC(=O)c2ccccc2)C(=O)c2ccccc2C1=O)C1CCS(=O)(=O)C1 (stereo not given)	-61.7*	19.7%	-0.4%
22	COc1ccc([C@H]2CC(=O)C=C(/C=C/Cc3ccccc3)C2)cc1	nt	nt	-0.5%
23	CN(C)c1ccc(/C=C/c2cc[n+](C)c3ccccc23)cc1	-41.7*	?	4.1%
24	CN(C)c1ccc(/C=C/C=C/c2sc3ccccc3[n+]2C)cc1	-1.3	?	0.3%
25	C/C(=N\NC(=O)c1cc(-c2cccnc2)nc2ccccc12)c1ccc(O)cc1O	-0.1	22.4%	-0.1%
26	C/C(=N\NP(=S)(c1ccccc1)c1ccccc1)c1ccc(O)cc1O	-5.2	2.9%	0.3%
27	COC(=O)c1nc(-c2ccc3c(n2)C(=O)C(N)=C(OC)C3=O)c(N)c(-c2ccc(OC)c(OC)c2O)c1C	-36.9*	-0.6%	-0.5%
28	CC[n+]1c(-c2ccccc2)c2cc(N)ccc2c2ccc(N)cc21	-44.3*	nt	nt
29	CCC(CC)NCc1c[nH]c2ccccc12	1.3	6.3%	-0.3%
30	c1cc[n+]2c(c1)-c1cccc[n+]1CC2	-35.4*	nt	nt
31	c1ccc(C[n+]2ccccc2)cc1	nt	nt	0.1%

cpd	Giardia kill	uPA generation	GALK inh
21	-21.0	10µM*	-0.3%
22	-14.4	?	nt
23	-4.8	-10.9%	0.7%
24	-3.1	-14.3%	-0.8%
25	-13.1	11.2µM*	2.5%
26	-9.4	-2.4%	-6.4%
27	?	-0.6%	?
28	-2.9	-11.8%	nt
29	4.9	4.47µM*	3.6%
30	nt	nt	nt
31	-7.0	5.0%	nt
